Data: patent US9371305B2, “Deuterated benzopyran compounds and application thereof” (Guangzhou Institutes of Biomedicine And Health, Chinese …, priority 2012, dated 2016)

System: generation of PGE2 in the whole blood
Test: whole blood assay, lipopolysaccharide-induced yield of PGE2 in heparin blood (ELISA)
Format: cell-based
Settings: human whole blood COX enzyme activity test
Procedure: Deuterated benzopyran compounds of different concentrations were uniformly mixed with ovine COX-1 and human recombinant COX-2 for incubation for 15 min, respectively, and then the system was added with Heme and ADHP for incubation for another 2 min and finally added with substrate arachidonic acid. The light emission intensity of the reaction product at 595 nm was immediately detected by a microplate reader under exciting light at 530 nm. […] In the whole blood assay, venous blood of healthy donors was collected with a non-anticoagulation tube and a heparin tube, deuterated benzopyran compounds of different concentrations (1×10^−8 to 1×10^−4) were mixed with the blood in the non-anticoagulation tube, the supernatant was collected after the blood was coagulated and then measured by ELISA in terms of the yield of TXB2; and deuterated benzopyran compounds of different concentrations (1×10^−8 to 1×10^−4) were mixed with the blood in the heparin tube, the mixture was added with lipopolysaccharide until the final concentration was 100 μg/mL, mixed uniformly and then kept stand overnight at 37° C., the supernatant was collected by centrifugation and then measured by ELISA in terms of the yield of PGE2. […]

SMILES: [2H]C([2H])([2H])c1cc(Cl)c2c(c1)C=C(C(=O)O)C(C(F)(F)F)O2 (stereo not shown) [GIBH-1018, 8-chloro-6-(methyl-D3)-2-(trifluoromethyl)-2H-chromene-3-carboxylic acid]
- selectivity to the inhibition of COX-2 enzyme of blood cells: better selectivity
